## Binding of CDR-mutated scFvs to a peptide of the spike HR2 region

Source: Engelhart et al. 2022 (doi:10.1038/s41597-022-01779-4), MIT Lincoln Laboratory and A-Alpha Bio; data file from the FLAb repository.

The target is the same throughout: PDVDLGDISGINAS, from the HR2 region of SARS-CoV-2 spike.

Ab-95 is the parent antibody, in scFv form: VH, then a (GGGGS)3 linker, then VL. The heavy chain is unchanged in all variants.
VH: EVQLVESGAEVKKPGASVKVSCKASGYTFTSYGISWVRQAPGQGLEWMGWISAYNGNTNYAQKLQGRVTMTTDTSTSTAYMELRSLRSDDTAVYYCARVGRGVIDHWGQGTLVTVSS
VL: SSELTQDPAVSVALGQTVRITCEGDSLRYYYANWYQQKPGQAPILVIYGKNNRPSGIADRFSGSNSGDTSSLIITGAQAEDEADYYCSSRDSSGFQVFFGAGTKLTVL

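Phage display of a naive human antibody library on the peptide gave the parent. The library (AAYL52) carries one to three amino acid substitutions per variant, with no insertions or deletions. The assay is AlphaSeq: two haploid yeast populations carry antibody and antigen on their surface. Pairs that bind mate more often; barcode pairs of the diploids are counted by sequencing. The ratio of observed to expected reads was calibrated, replicate by replicate, on BCL2-family standards whose Kd was known from biolayer interferometry. The assay was run in three technical replicates.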

Sequences are complete VL domains. All variants listed here change D25 of the VL, counted from its first residue. Each Kd is an estimate from the mating assay, the geometric mean of the replicates in which the pair was seen; lower is stronger. Where no diploid with the target was found in any replicate, the entry reads "no signal": below detection, most likely a poor binder, though not proof of it. Parent in this assay: reference entry 200 nM, copy in this library 180 nM.

| VL | Kd | replicates with signal |
|---|---|---|
| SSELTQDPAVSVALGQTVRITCEGRSLRYYQANWYQQKPGQAPILVIYGKNNRPSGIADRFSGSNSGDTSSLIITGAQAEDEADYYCRSRDSSGFQVFFGAGTKLTVL | 4.6 µM | 1/3 |
| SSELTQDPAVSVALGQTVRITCEGWSLRYYYAEWYQQKPGQAPILVIYGKNNRMSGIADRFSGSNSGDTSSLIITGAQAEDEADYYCSSRDSSGFQVFFGAGTKLTVL | no signal | 0/3 |
| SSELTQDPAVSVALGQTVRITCEGASLRMYYAWWYQQKPGQAPILVIYGKNNRPSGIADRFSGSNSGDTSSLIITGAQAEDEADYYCSSRDSSGFQVFFGAGTKLTVL | 110 µM | 1/3 |
| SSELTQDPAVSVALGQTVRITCEYPSLRYYYANWYQQKPGQAPILVIYGKNNRPSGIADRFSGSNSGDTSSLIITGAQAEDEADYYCSSRDSSGIQVFFGAGTKLTVL | 100 µM | 2/3 |
| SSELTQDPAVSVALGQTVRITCEGWSRRYYTANWYQQKPGQAPILVIYGKNNRPSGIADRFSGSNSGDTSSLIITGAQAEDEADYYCSSRDSSGFQVFFGAGTKLTVL | 7.9 µM | 2/3 |
| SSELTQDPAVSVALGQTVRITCKGISLRYYYANWYQQKPGQAPILVIYGKNNRPSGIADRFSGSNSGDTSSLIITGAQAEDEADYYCSSRYSSGFQVFFGAGTKLTVL | 1.2 µM | 3/3 |
| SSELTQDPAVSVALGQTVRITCEGQSLRYYYANWYQQKPGQAPILVIYGKNNRPSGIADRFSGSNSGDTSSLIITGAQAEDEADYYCSSRDSSPFQVFFGAGTKLTVL | 28 µM | 2/3 |
| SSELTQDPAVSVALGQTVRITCEGVSLRYYYANWYQQKPGQAPILVIYGKNNRPSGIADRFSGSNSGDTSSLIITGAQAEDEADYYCSSRDSGGFQVFFGAGTKLTVL | 390 nM | 3/3 |
| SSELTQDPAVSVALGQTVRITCEGCSLRYYYANWYQQKPGQAPILVIYGKHNRMSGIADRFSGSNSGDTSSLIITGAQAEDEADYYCSSRDSSGFQVFFGAGTKLTVL | 6.6 µM | 2/3 |
| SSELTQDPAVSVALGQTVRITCEGLSLRYYYANWYQQKPGQAPILVIYGKNNRPSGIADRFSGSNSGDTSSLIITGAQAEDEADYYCSSRDSAGFEVFFGAGTKLTVL | no signal | 0/3 |
| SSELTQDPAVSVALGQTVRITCEGCSLSYYYANWYQQKPGQAPILVIYGKNNRPSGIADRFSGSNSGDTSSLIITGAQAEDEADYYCSSRDSSGFQSFFGAGTKLTVL | 4.1 µM | 2/3 |
| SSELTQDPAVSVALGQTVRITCEGQSFRYYYANWYQQKPGQAPILVIYGKNNRPSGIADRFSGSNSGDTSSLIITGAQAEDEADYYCSYRDSSGFQVFFGAGTKLTVL | 950 nM | 3/3 |
| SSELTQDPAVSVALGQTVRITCEGRSLRYYYAHWYQQKPGQAPILVIYGKNNRPSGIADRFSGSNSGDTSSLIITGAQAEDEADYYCSSRDSSGPQVFFGAGTKLTVL | 18 µM | 2/3 |
| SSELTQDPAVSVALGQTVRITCEGQSLRCYYANWYQQKPGQAPILVIYGKNNRPSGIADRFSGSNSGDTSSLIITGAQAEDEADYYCSSRDSSGFQKFFGAGTKLTVL | 1.1 µM | 3/3 |
| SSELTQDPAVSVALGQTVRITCEGISLRYYYANWYQQKPGQAPILVIYGKNNRPSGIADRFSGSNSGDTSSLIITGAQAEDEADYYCSSRMSSGFQVFFGAGTKLTVL | 60 nM | 3/3 |
| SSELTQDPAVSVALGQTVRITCEGQSPRYYYANWYQQKPGQAPILVIYGKNNSPSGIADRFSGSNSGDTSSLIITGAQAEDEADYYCSSRDSSGFQVFFGAGTKLTVL | 6.4 µM | 2/3 |
| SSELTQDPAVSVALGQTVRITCEGPSLRSYYANWYQQKPGQAPILVIYGKNNEPSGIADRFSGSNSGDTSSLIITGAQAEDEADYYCSSRDSSGFQVFFGAGTKLTVL | 2.3 µM | 2/3 |

Excerpt, the first 2 entries:

| VL | Kd | replicates with signal |
|---|---|---|
| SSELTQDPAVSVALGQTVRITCEGRSLRYYQANWYQQKPGQAPILVIYGKNNRPSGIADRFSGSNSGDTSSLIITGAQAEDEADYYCRSRDSSGFQVFFGAGTKLTVL | 4.6 µM | 1/3 |
| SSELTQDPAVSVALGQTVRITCEGWSLRYYYAEWYQQKPGQAPILVIYGKNNRMSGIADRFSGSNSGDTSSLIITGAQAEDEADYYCSSRDSSGFQVFFGAGTKLTVL | no signal | 0/3 |

Nonspecific signal, from three strains lacking the peptide, appeared in 28% of pairings of library AAYL52, centred on 8.2 µM (5% of these signals below 800 nM); values are not corrected for it.